Earlier results, collected in US6838436B1, “Inhibitors of proteasomal activity for stimulating bone growth” (Osteoscreen Inc., priority 1998, dated 2005).

Molecular target: cathepsin B (Homo sapiens, UniProt P07858)
Conditions: cited from earlier work

## CC[C@H](C)[C@H](NC(=O)[C@H]([C@@H](C)CC)N(C)C(C)=O)C(=O)N[C@H](C(=O)N[C@@H](CC(C)C)C(=O)[C@@]1(C)CO1)[C@@H](C)O [Epoxomicin]
  concentration up to which no inhibition appears: > 50 µM
